According to patent US20260364081A1, “METHOD FOR PREVENTING OR TREATING ATTENTION DEFICIT HYPERACTIVITY DISORDER (ADHD) AND FOR PREPARING A COMPOUND OR SALT THEREOF” (ASTROGEN, INC., priority 2023, published 2026):
Where a name gives a salt, the structure may show the parent alone.

Test: PAMPA-BBB permeability assay
Assay type: in vitro ADME
Details: donor 100 uM in DPBS, 37 °C, 6 hours, LC-MS/MS, mean (n=3); for Recovery: 360 min, 100 µM

| SMILES | Transport fraction (% T) | Recovery | other results |
| --- | --- | --- | --- |
| CCOc1ccccc1OC[C@@H]1CNCCO1 [Example 10, (S)-viloxazine acetate] | 16.43% | 103.8% | – |
| CCOc1ccccc1OC[C@@H]1CNCCO1 [Example 8, (S)-viloxazine hydrobromide] | – | – | Transport fraction (% T) (hydrobromide): 15.57%; Recovery (hydrobromide): 91.1% |
| CCOc1ccccc1OC[C@@H]1CNCCO1 [Example 7, (S)-viloxazine sulfate] | 15.65% | 92.0% | – |
| CCOc1ccccc1OC[C@@H]1CNCCO1 [Example 17, (S)-viloxazine (S)-ibuprofenate] | 15.05% | 94.3% | – |
| CCOc1ccccc1OC[C@@H]1CNCCO1 [Example 6, (S)-viloxazine hydrochloride] | – | – | Transport fraction (% T) (hydrochloride): 14.38%; Recovery (hydrochloride): 81.3% |
